Key:
[1] = Hydrolysis and aspirin release in buffered human plasma solution (HPLC)
[2] = Hydrolysis in the presence of human intestinal microsomes (HIM), with or without esterase inhibitors; type: in vitro ADME
Method: (§1) Pooled plasma/serum solutions (4 ml) were prepared to the correct strength by dilution of plasma with phosphate buffer pH 7.4 (e.g. for a 10% solution 0.4 ml of plasma/serum was added to 3.6 ml of phosphate buffer pH 7.4). Following equilibration of the plasma/serum sample at 37±0.5° C. 100 μl of a stock solution of test compound in acetonitrile (1×10^−4 M) was added and 250 μl aliquots were removed at specified time intervals. Samples were transferred to 1.5 ml Eppendorf tubes containing 500 μl of a 2% w/v solution of nSO4.7H2O (water:acetonitrile, 1:1). Tubes were vortexed for 2 minutes, then centrifuged at 10,000 rpm for 3 minutes at room temperature. Supernatant was aspirated off and analysed by HPLC. The concentration of test compound and metabolites were determined with reference to calibration curves run on that day in the same concentration range and under the same experimental conditions. In order to mimic conditions during the first passage of the drugs after intestinal absorption selected compounds were incubated in phosphate buffer at 37° C. in the presence of microsomes from human liver (HLM) and intestinal epithelium (HIM). The metabolic fate of the esters under these conditions was also determined by RPHPLC by measuring the concentration of drug and metabolites in the medium as a function of time. The identity of participating enzymes was confirmed by using purified enzyme in the case of plasma (BuChE) and by repeating the hydrolysis experiments in the presence of esterase specific inhibitors—isoOMPA for BuChE and BNPP for carboxylesterase. The BuChE activity of plasma and microsomal samples was determined using the Ellman assay (Ellman et al., 1964).
(§2) Human blood samples were collected by venipuncture into Li-Heparin Sarstedt Monovette tubes (9 ml). Plasma samples were obtained by centrifugation of blood at 10,000 rpm for five minutes and were frozen in aliquots until required for testing. Pooled human liver microsomes (HLM) were diluted to 5 ml with phosphate buffer pH 7.4 (0.1M) giving a stock solution of 2 mg/ml. Aliquots were frozen until required for testing. Pooled human intestinal microsomes (HIM) were diluted to 5 ml with phosphate buffer pH 7.4 (0.1M) giving a stock solution of 80 μg/ml. Aliquots were frozen until required for testing.
(§3) This raised the question as to whether this was due to the presence of BChE or to some other enzyme(s) because whereas human blood contains only butyrylcholinesterase the liver and intestinal epithelium also contain carboxylesterases (CE)—mainly CE-1 in the liver and CE-2 in the intestine. The microsomal preparations was therefore pre-incubated with iso-OMPA an established BChE inhibitor prior to addition of the pro-drug so as to allow sufficient time to inhibit any BChE that might have been present in the microsomal preparations. […] The Ellman assay was performed on both microsomal preparations so as to determine what levels of BChE are present, if any.
(§4) BNPP a know carboxylesterase inhibitor was incubated with HIM and HLM for 10 mins prior to addition of the drug so as to knock out carboxylesterase activity. […] It can be concluded that ISAS is a substrate for CE-1 and CE-2 as well as BuChE. These enzymes belong to the same family but have marked difference in substrate specificity. For example the CE enzymes are inefficient in the hydrolysis of positively charged substrates such as those favoured by BuChE, including choline esters. These enzymes are not normally grouped together.

[3] = Hydrolysis in the presence of human liver microsomes (HLM), with or without esterase inhibitors; type: in vitro ADME
Method: as §1, §2, §3, §4

[4] = HIM (80 μg/ml), conc drug 0.1 mM
[5] = HIM/BNPP (11.6 uM), conc drug 0.11 mM
[6] = HIM/isoOMPA (14.14 uM), conc drug 0.11 mM
[7] = HLM (0.2 mg/ml), conc drug 0.13 mM
[8] = HLM/BNPP (10.6 μM), conc drug 0.1 mM
[9] = HLM/iso-OMPA (14.4 μM), conc drug 0.1 mM

Isosorbide-2-aspirinate-5-(3-nitrooxy-methyl)benzoate [Compound 32]
amounts of aspirin produced ([1]; 50% HP): 21
Drug disappearace ([1]; 50% HP, conc drug 0.25 mM): 10 min
Aspirin ([1]; 80% HP, conc drug 0.1 mM): 21 µM
Drug disappearace ([1]; 80% HP, conc drug 0.1 mM): 10 min
aspirin produced ([1]; 80% human plasma, drug 1×10^−4M): 21 µM
amounts of aspirin produced ([2]; HIM (80 μg/ml)): 20
aspirin production ([2]; HIM (80 μg/ml)): 20 µM
Aspirin [2, 4]: 20 µM
Drug disappearace [2, 4]: 10 min
Salicylic acid [2, 4]: 4 µM
aspirin produced ([2]; HIM with iso-OMPA (14 μM), drug 1.1×10^−4 M): 12.7 µM
amounts of aspirin produced ([2]; HIM/BNPP (11.6 uM)): 0.22
Aspirin [2, 5]: 0.22 µM
Drug disappearace: drug left [2, 5]: 11 μM left
Salicylic acid [2, 5]: 1.3 µM
amounts of aspirin produced ([2]; HIM/isoOMPA (14.14 uM)): 12.7
Aspirin [2, 6]: 12.7 µM
Drug disappearace [2, 6]: 30 min
Salicylic acid [2, 6]: 7.2 µM
aspirin produced ([2]; in HIM, drug about 1×10^−4 M): 20 µM
amounts of aspirin produced ([3]; HLM (0.2 mg/ml)): 5
Aspirin [3, 7]: 5 µM
Drug disappearace [3, 7]: 10 min
Salicylic acid [3, 7]: 6 µM
aspirin produced ([3]; HLM with iso-OMPA (14.4 μM), drug 1×10^−4 M): 1.4 µM
amounts of aspirin produced ([3]; HLM/BNPP (10.6 μM)): 0.3
Aspirin [3, 8]: 0.3 µM
Drug disappearace: drug left [3, 8]: 13 μM left
Salicylic acid [3, 8]: 0.9 µM
amounts of aspirin produced ([3]; HLM/iso-OMPA (14.4 μM)): 1.4
Aspirin [3, 9]: 1.4 µM
Drug disappearace [3, 9]: 20 min
Salicylic acid [3, 9]: 4.5 µM

Isosorbide-2-aspirinate-5-(2-nitrooxy-methyl)benzoate [Compound 31]
aspirin production ([2]; HIM (80 μg/ml)): 21.7 µM
aspirin produced ([2]; in HIM, drug about 1×10^−4 M): 21.7 µM

Isosorbide-2-aspirinate-5-(4-nitrooxy-methyl) benzoate [Compound 33]
aspirin production ([2]; HIM (80 μg/ml)): 9.7 µM
aspirin produced ([2]; in HIM, drug about 1×10^−4 M): 9.97 µM

Reference: patent US8486974B2 (priority 2007, dated 2013)
